This is an account of results in ChEMBL document CHEMBL1137580, “Synthesis, potency, and in vivo profiles of quinoline containing histamine H3 receptor inverse agonists” (J Med Chem, 2007).

By UniProt entry, the sequences of proteins in these tests, tags left out. Where a name states a change or a piece, a line headed by the entry shows the natural chain unless it says otherwise.
UniProt Q9QYN8: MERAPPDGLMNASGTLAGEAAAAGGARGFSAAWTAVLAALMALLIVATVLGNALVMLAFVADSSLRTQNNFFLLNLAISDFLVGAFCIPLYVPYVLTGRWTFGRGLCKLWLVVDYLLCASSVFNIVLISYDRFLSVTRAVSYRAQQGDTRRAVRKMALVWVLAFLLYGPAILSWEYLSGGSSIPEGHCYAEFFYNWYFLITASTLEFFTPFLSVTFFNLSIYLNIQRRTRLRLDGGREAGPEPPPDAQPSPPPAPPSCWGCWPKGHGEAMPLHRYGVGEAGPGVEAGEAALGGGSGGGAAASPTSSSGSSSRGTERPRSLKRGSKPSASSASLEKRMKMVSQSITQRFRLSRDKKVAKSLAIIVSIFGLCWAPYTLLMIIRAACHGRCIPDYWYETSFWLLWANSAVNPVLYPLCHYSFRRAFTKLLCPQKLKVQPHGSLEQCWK

Each structure is given as a SMILES string.

The assay deals with Histamine H3 receptor (Rattus norvegicus, UniProt Q9QYN8). In words: Agonist activity at rat histamine H3 receptor expressed in HEK239 cells assessed as reduction of basal [35S]GTP-gamma-S binding. It counts as functional, cell-based.

Turning to `C[C@@H]1CCCN1CCc1cc2cc(-c3ccc(C#N)cc3)ccc2o1`, the EC50 (commonly the concentration needed to bring the measured effect to its halfway point) turned out to be 0.0174 µM.
